Assay results: patent publication US8871728B2, “Non-peptide macrocyclic histone deacetylese (HDAC) inhibitors and methods of making and using thereof” (Georgia Tech Research Corporation, priority 2007, dated 2014)

By UniProt entry, the sequences of proteins in these tests, tags left out. Where a name states a change or a piece, a line headed by the entry shows the natural chain unless it says otherwise.
UniProt Q9BY41: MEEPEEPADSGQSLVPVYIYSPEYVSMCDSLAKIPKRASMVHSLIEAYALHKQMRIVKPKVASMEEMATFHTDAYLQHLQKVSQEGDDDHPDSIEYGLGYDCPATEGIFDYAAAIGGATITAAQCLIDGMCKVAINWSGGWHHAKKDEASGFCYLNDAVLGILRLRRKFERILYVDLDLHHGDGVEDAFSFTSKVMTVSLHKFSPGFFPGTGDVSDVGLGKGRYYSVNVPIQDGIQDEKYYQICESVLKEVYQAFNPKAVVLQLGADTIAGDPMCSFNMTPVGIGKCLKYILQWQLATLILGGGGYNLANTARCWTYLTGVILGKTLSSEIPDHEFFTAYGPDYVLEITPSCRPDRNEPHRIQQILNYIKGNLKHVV

Molecular target: HDAC8 (Homo sapiens (Human), UniProt Q9BY41)
Test: SAMDI mass spectrometry HDAC inhibition assay
Type: biochemical
Conditions: Table 14; read-out: HDAC 8 (nm)

SMILES: Cc1ccccc1-c1ccc(Cn2cccc(O)c2=S)cc1 [Compound 149f, 1-(2-Methyl-(1,1′-biphenylmethyl))-3-hydroxyoxypyridine-2-thione]
- IC50: 3.1 ± 1.65 µM
